# Experimental data taken from PubChem BioAssay AID720535 (National Center for Advancing Translational Sciences (NCATS), 2013).
# The entries are a selection whose mix differs from that of the whole data set. Results filed as inconclusive are left out. Calls of active or inactive are those of the source. The call rests on the fitted dose curve; in most records, active means well fitted inhibition curve with a large enough effect; inconclusive means small, poorly fitted or top-dose-only effect; inactive means flat fitted curve, though single readings scatter.
# Test: qHTS for Inhibitors of TGF-b: Cytotox Counterscreen for Cherry Picks; further: nearly all actives have a fitted effect of over 70% in size
# Conditions: HepG2 CAGA-GFP viability, ATP luminescence, 18 h; cells stimulated with TGF-beta, 500 pg/mL
# Excerpt: TGF-b is a main component in the TGF-b signaling pathway which plays diverse roles in cellular and development pathways. TGF-b is mediated by transcription factors called "Smads". Although the Smad-dependent pathway is the primary canonical TGF-b signaling mode, TGF-b1 can also activate alternative signaling pathways, including those involving MAPK (ERK, JNK and p38). This interaction may mediate or enhance Smad-dependent responses, or can exert Smad-independent effects. The complexity of this signaling cascade allows the TGF-b superfamily to perform unique, overlapping or redundant functions. […] We aim to identify Smad3-small molecule antagonists using a quantitative high throughput screening (qHTS) approach. […]
# Suspensions of trypsinized HEPG2 CAGA-GFP cells were dispensed into white, tissue culture-treated, solid 1536-well plates at 5uL/well (1000 cells/well final concentration) in DMEM medium supplemented with 1% FBS. […] Two uL of CellTiter Glo (Promega), a luminescence-based viability reagent, was dispensed, followed by a 10 minute room temperature incubation. The plates were then measured on a PerkinElmer ViewLux plate reader for luminescence (clear filter) using a 5 second exposure. The %Activity was determined from the corrected luminescence values. […] Concentration-response curves were fitted to the signals arising from the resulting luminescence. […]
# Potency means the concentration at half of the fitted maximal effect.
row,SMILES,Potency
1,O=c1c2cc([N+](=O)[O-])ccc2[nH]c2c([N+](=O)[O-])cc([N+](=O)[O-])cc12,active: 4110 nM
2,CC1=CC2OC3CC4OC(=O)/C=C/C=CC(C(C)O)OCC(O)C(C)CC(=O)OCC2(CC1O)C4(C)C31CO1 (configuration not stated),active: 65.1 nM
